Test results from patent publication US7105573B2, “Methods and compositions for the treatment of alopecia and other disorders of the pilosebaceous apparatus” (Orentreich Foundation for the Advancement of Science, Inc., priority 2000, dated 2006).
Where a name gives a salt, the structure may show the parent alone. Read-outs that look alike come from different tables or passages of the source.

Legend:
[1] = in 50% SDA and 2% butylene glycol in water
[2] = Percutaneous absorption / skin penetration of metformin; conditions: basic solution, pH 13.0–13.5

## CN(C)C(=N)NC(=N)N [Metformin base]
[1]
  pH of solution: 13
[1]; listed as metformin base
  pH of solution: about 13
[2]
  skin penetration relative to the hydrochloride: penetrates the skin better than the hydrochloride

## CN(C)C(=N)N=C(N)N [Metformin HCl, Metformin hydrochloride]
[1]
  pH of solution: 6.5–7.0
[1]; hydrochloride
  pH of solution: neutral pH

## CN(C)C(=N)N=C(N)N.O=C(O)c1cc2ccccc2c(Cc2c(O)c(C(=O)O)cc3ccccc23)c1O [Metformin pamoate, metformin pamoate]
[1]
  pH of solution: neutral pH
